The results in this text go back to PubChem BioAssay AID2107 (National Center for Advancing Translational Sciences (NCATS), 2009).

The chains behind the UniProt entries cited, without tags or fusion partners. Where a name states a change or a piece, a line headed by the entry shows the natural chain unless it says otherwise.
UniProt P06280: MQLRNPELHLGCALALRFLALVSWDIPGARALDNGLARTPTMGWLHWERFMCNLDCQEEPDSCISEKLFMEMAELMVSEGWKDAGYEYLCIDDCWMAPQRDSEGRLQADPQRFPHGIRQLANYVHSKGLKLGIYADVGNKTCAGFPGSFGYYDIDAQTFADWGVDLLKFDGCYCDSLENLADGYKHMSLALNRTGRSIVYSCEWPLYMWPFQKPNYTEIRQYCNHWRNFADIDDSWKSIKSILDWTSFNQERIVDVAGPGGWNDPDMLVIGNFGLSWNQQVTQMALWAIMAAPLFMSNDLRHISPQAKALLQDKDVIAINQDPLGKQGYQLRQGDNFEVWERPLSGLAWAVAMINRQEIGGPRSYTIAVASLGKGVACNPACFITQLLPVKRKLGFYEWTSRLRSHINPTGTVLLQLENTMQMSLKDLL

The structures appear in SMILES notation. Several values for one entry are separate records, joined by “and”; a condition that tells them apart may be missing. Identical values can stand only once. Only a part is listed here, and it is no random draw. Activity calls are given as the source filed them. The call rests on the fitted dose curve; in most records, active means well fitted inhibition curve with a large enough effect; inconclusive means small, poorly fitted or top-dose-only effect, or effect the other way; inactive means flat fitted curve, though single readings scatter.

The target of this experiment is Alpha-galactosidase A (Homo sapiens) (UniProt P06280). The experiment is described as follows: qHTS Assay for Inhibitors and Activators of Human alpha-Galactosidase From Spleen Homogenate.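 Further: 0% = enzyme with vehicle and -100% = no enzyme basal signal.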 Conditions: 4MU-alpha-Gal fluorescence, 40 min; at 80 µM (top of the series) unless noted. The source says:
NIH Chemical Genomics Center [NCGC] NIH Molecular Libraries Probe Production Centers Network [MLPCN] MLPCN Grant: R03 MH084842-01 Assay Submitter (PI): Wei Zheng NCGC Assay Overview: Alpha-galactosidase is a homodimeric glycoprotein that hydrolyzes the terminal alpha-galactosyl moieties from glycolipids and glycoproteins. Deficiency of this enzyme results in Fabry Disease with progressive accumulation of globotriaosylceramide and other glycosphingolipids in vascular endothelial cells that causes renal failure, myocardial infarction and stroke, and premature death in patients. It has been reported that the improper folding and trafficking of alpha-galactosidase resulting from genetic mutations may account for a significant number of Fabry patients. […] We optimized this alpha-galactosidase assay in 1536-well plate format for identification of novel small molecule inhibitors or activators with structures other than the sugar analogs in order to develop new pharmacological chaperones. In particular, this assay is directed towards discovering compounds active in more natural setting, tissue homogenate, that may have been missed by screens of the purified enzyme under more stringent conditions.
NCGC Assay Protocol Summary: This is a fluorogenic enzyme assay with 4-methylumbelliferyl-alpha-D-galactopyranoside as the substrate and human spleen homogenate containing alpha-galactosidase as the enzyme preparation. Upon hydrolysis of this fluorogenic substrate, the resulting product, 4-methylumbelliferone (which excites at 365 nm and emits at 440 nm) can be detected by a fluorescence plate reader. Data were normalized to the controls for basal activity (without enzyme) and 100% activity (with enzyme). The AC50 values were determined from concentration-response data modeled with the standard Hill equation. Assay buffer: 50 mM citric acid (titrated with potassium phosphate to pH 5.0), 0.01% Tween-20 (pH 5.0 is an optimal condition for this enzyme assay) 1536-well assay protocol for the alpha-galactosidase from human spleen homogenate: (1) Add 2 ul/well spleen homogenate (1 ug) (2) Add 23 nL compounds in DMSO solution. The final titration was 0.5 nM to 58 uM. (3) Add 2 ul of substrate (1 mM final) (4) Incubate at 37C for 40 min (5) Add 2 ul stop solution (1M NaOH and 1M Glycine mixture, pH 10) (6) Detect the assay plate in a ViewLux plate reader (PerkinElmer) with Ex=365 nm and Em=440nm. Keywords: Alpha-galactosidase, Fabry Disease, pharmacological chaperone, chaperone therapy, high throughput screening, alpha- galactosidase inhibitor, MLSMR, MLSCN, NIH Roadmap, qHTS and NCGC
On the technique in general: Quantitative high-throughput screening tests each substance at several concentrations.
Take `Cc1ccc(NP(=O)(Oc2ccccc2F)Oc2ccccc2F)nc1`: the activity change, negative = inhibition was inactive: 3.39%.

In the case of `CN(C(=O)Cc1ccc(Cl)c(Cl)c1)[C@H]1CCCC[C@@H]1N1CCCC1`, the activity change, negative = inhibition was inactive: 2.92% [middle of 10 runs].

As to `CCOP(=O)(Nc1ccccc1)OCC`, the activity change, negative = inhibition was inactive: 3.68% and inactive: 1.7%.

Consider `Cc1cc(SC(NC(=O)c2ccc(F)cc2)C(Cl)(Cl)Cl)ncn1` (stereo not given), for which the activity change, negative = inhibition was inactive: -1.32%.

In the case of `O=P(Nc1nc2ccc(Cl)cc2s1)(c1ccccc1)c1ccccc1`, the activity change, negative = inhibition was inactive: 4.9%.

For the molecule `O=C(O)c1ccccc1[As](=O)(O)O`, the activity change, negative = inhibition is inactive: -7.16%.

Turning to `CC(=O)Nc1ccc([As](=O)(O)O)cc1`, the activity change, negative = inhibition was inactive: 8.81%.

On to `Nc1cccc2ccc([As](=O)(O)O)cc12`, for which the activity change, negative = inhibition is inactive: -1.41%.

In the case of `CCN(N=Nc1nonc1N)c1nonc1N`, the activity change, negative = inhibition is inactive: 6.59%.

As for `Clc1ccc(Cl)c(NC2=NCC(CBr)S2)c1` (stereo not given), the activity change, negative = inhibition is inactive: -4.51%.

Consider `CN1CCCC(OC(=O)C(c2ccccc2)c2ccccc2)C1` (stereo not given), for which the activity change, negative = inhibition was inactive: -6.01%.

Regarding `Cc1ccc(OP(=O)(Nc2nccs2)Oc2ccc(C)cc2)cc1`, the activity change, negative = inhibition is inactive: 4.53%.

For the molecule `COc1ccccc1OP(=O)(Nc1ccc(C)cn1)Oc1ccccc1OC`, the activity change, negative = inhibition was inactive: 5.35%.

For the molecule `Cc1ccc(N/C(=N/P(=O)(N2CCOCC2)N2CCOCC2)N2CCOCC2)cc1`, the activity change, negative = inhibition is inactive: -0.552%.

For `NC(=O)c1cc([N+](=O)[O-])cc([N+](=O)[O-])c1N`, the activity change, negative = inhibition is inactive: -3.15%.

Take `Cc1c2non([O-])c-2c(C)[n+](=O)[n+]1[O-]`: the activity change, negative = inhibition was inactive: -3.91%.

Regarding `O=C(NC(Sc1ccncn1)C(Cl)(Cl)Cl)c1ccccc1` (stereo not given), the activity change, negative = inhibition is inactive: -17.2%.

Take `Oc1ccccc1CNc1ccccn1`: the activity change, negative = inhibition is inactive: 0.115%.

As to `CC(C)CC(=O)NC(Sc1ccc(Cl)cc1)C(Cl)(Cl)Cl` (stereo not given), the activity change, negative = inhibition was inactive: -1.31%.

Regarding `Nc1cc(N)c2nonc2c1[N+](=O)[O-]`, the activity change, negative = inhibition is inactive: 1.84%.

On to `CCc1nc2c(n1)c1c(non1O)c1c2no[n+]1[O-]`, for which the activity change, negative = inhibition was inactive: 2.71%.

`O=[N+]([O-])c1cc([N+](=O)[O-])c(CCNc2ccccc2)c([N+](=O)[O-])c1`: the activity change, negative = inhibition is inactive: 2.06%.

On to `Cc1ccc(NP(=O)(Oc2ccccc2)Oc2ccccc2)nc1`, for which the activity change, negative = inhibition was inactive: 1.48%.

As for `O=[N+]([O-])c1cccc2n[nH]nc12`, the activity change, negative = inhibition was inactive: -0.985%.

Turning to `CC(=O)N1C2C3N(C(C)=O)C1C1N(C(C)=O)C(C(N1C(C)=O)N3C(C)=O)N2C(C)=O`, the activity change, negative = inhibition is inactive: -10.1%.

As to `COc1ccc(C2=NCC(CBr)S2)cc1` (stereo not given), the activity change, negative = inhibition was inactive: -1.43%.

Take `CC1CCN(C(=O)Oc2c(Cl)cc(Cl)c3cccnc23)CC1`: the activity change, negative = inhibition is inactive: 0.266%.

As to `CC(=O)C1=CCCC2CCC1N2` (stereo not given), the activity change, negative = inhibition was inactive: 1.44% and inactive: -7.49%.

On to `CN(C)C(=O)OCCc1n(C)cc[n+]1C`, for which the activity change, negative = inhibition was inactive: 4.12%.

In the case of `CC(C)=N/N=C(\N)N[N+](=O)[O-]`, the activity change, negative = inhibition is inactive: -21.1%.

For `CCN(/C(=N/P(=O)(N1CCOCC1)N1CCOCC1)N1CCOCC1)c1ccc(OC)cc1`, the activity change, negative = inhibition was inactive: -1.18%.

For `C[N+]1=C2C=CC=CC=C2SC12C([N+](=O)[O-])=CC([N+](=O)[O-])=C[C-]2[N+](=O)[O-]` (stereo not given), the activity change, negative = inhibition is inactive: -0.759%.

Consider `Nc1ccc([As](=O)(O)c2ccc(N)cc2)cc1`, for which the activity change, negative = inhibition was inactive: 12.7%.

With `O=C(Nc1cc([As](=O)(O)O)ccc1O)c1ccccc1`, the activity change, negative = inhibition was inactive: -8.5%.

`O=C(O)CNc1ccc([As](=O)(O)O)cc1`: the activity change, negative = inhibition is inactive: -0.395%.

Turning to `O=[N+]([O-])c1cccc(NC2=NCC(CBr)S2)c1` (stereo not given), the activity change, negative = inhibition was inactive: 4.36%.

With `O=[N+]([O-])c1ncn(CCn2ncnc2[N+](=O)[O-])n1`, the activity change, negative = inhibition was inactive: -4.39%.

Consider `CC(C)(C)C(=O)NC(Sc1ccncn1)C(Cl)(Cl)Cl` (stereo not given), for which the activity change, negative = inhibition was inactive: -20.2%.

Consider `CN(C(=O)Cc1ccccc1)[C@H]1CC[C@@]2(CCCO2)C[C@@H]1N1CCCC1`, for which the activity change, negative = inhibition is inactive: 4.79%.

Consider `Cc1cc([N+](=O)[O-])cc([N+](=O)[O-])c1O`, for which the activity change, negative = inhibition was inactive: 1.28%.

For the molecule `C[C@H]1OP(=O)(Oc2ccccc2)[C@H](O)[C@H](O)[C@H]1N=[N+]=[N-]` (stereo not given in full), the activity change, negative = inhibition is inactive: 1.87%.

Consider `O=P(Nc1nc2ccccc2s1)(c1ccccc1)c1ccccc1`, for which the activity change, negative = inhibition is inactive: 4.05%.

In the case of `O=P(Nc1ccccn1)(c1ccc(Br)cc1)c1ccc(Br)cc1`, the activity change, negative = inhibition was inactive: -0.913%.

With `O=C(OC1CN2CCC1CC2)c1cccc(Cl)c1` (stereo not given), the activity change, negative = inhibition is inactive: -8.52%.

On to `Nc1ccc([As](=O)(O)c2ccc([N+](=O)[O-])cc2)cc1`, for which the activity change, negative = inhibition is inactive: 2.76%.

With `C(Cc1nn[nH]n1)Cc1nn[nH]n1`, the activity change, negative = inhibition was inactive: -3.58%.

Take `O=[As](O)(c1ccccc1)c1ccc(O)cc1`: the activity change, negative = inhibition was inactive: 7.67%.

For the molecule `O=[N+]([O-])c1ncn(CCn2cnc([N+](=O)[O-])n2)n1`, the activity change, negative = inhibition is inactive: -5%.

With `CC(=O)NC(SC(=S)N(C)C)C(Cl)(Cl)Cl` (stereo not given), the activity change, negative = inhibition was inactive: -2.52%.

In the case of `c1nnnn1CCn1cnnn1`, the activity change, negative = inhibition was inactive: 0.551%.

Turning to `CCC(C)(OOC(C)(C)C)OOC(C)(C)C`, the activity change, negative = inhibition is inactive: 5.59%.

As to `CC(C)C(=O)NC(Sc1ccccc1)C(Cl)(Cl)Cl` (stereo not given), the activity change, negative = inhibition is inactive: -4.35%.

Turning to `O=P(Nc1nccs1)(c1ccccc1)c1ccccc1`, the activity change, negative = inhibition is inactive: -0.425%.

Consider `CC(C)(C)C(=O)NC(Sc1ccccc1)C(Cl)(Cl)Cl` (stereo not given), for which the activity change, negative = inhibition was inactive: 3.05%.

In the case of `CCOc1ccc(C2=NCC(CBr)S2)cc1` (stereo not given), the activity change, negative = inhibition was inactive: -0.929%.

Consider `O=P1(Nc2nc3ccc(Cl)cc3s2)COc2ccccc2O1` (stereo not given), for which the activity change, negative = inhibition is inactive: 12.1%.

Consider `CC(=O)Nc1ccc(Oc2c([N+](=O)[O-])cc([N+](=O)[O-])cc2[N+](=O)[O-])cc1`, for which the activity change, negative = inhibition is inactive: 3.24%.

Turning to `CC(=O)Nc1ccc([As](=O)(O)O)c(O)c1`, the activity change, negative = inhibition was inactive: 4.65%.

With `C[C@@H]1C=CCP(=O)(Oc2ccccc2)O1` (stereo not given in full), the activity change, negative = inhibition is inactive: 2.98%.

On to `C[C@H]1OP(=O)(Oc2ccccc2)C[C@@H]2O[C@@H]21` (stereo not given in full), for which the activity change, negative = inhibition was inactive: 0.949%.

In the case of `CCOC(=O)NC(Sc1ccccc1)C(Cl)(Cl)Cl` (stereo not given), the activity change, negative = inhibition was inactive: -2.78%.

For the molecule `Cc1ccc(NP(=O)(Oc2cccc(C)c2)Oc2cccc(C)c2)nc1`, the activity change, negative = inhibition was inactive: 4.06%.

For `c1ccc(-c2nn[nH]n2)c(-c2nn[nH]n2)c1`, the activity change, negative = inhibition is inactive: -27.6%.

On to `CCNC(=S)/N=C(\N)N[N+](=O)[O-]`, for which the activity change, negative = inhibition was inactive: -1.66%.

For `O=C(NC1CCS(=O)(=O)C1)NP(=S)(Oc1ccccc1)Oc1ccccc1` (stereo not given), the activity change, negative = inhibition was inactive: 4.45%.
